Laboratory results as given in US11291666B2, “Uses” (INTRA-CELLULAR THERAPIES, INC., priority 2016, dated 2022).

Chains of the proteins cited; added tags and fusions are not shown. Lines headed by an entry give the natural chain unless they say otherwise; changes in a name come on top.
UniProt O00408, whole entry: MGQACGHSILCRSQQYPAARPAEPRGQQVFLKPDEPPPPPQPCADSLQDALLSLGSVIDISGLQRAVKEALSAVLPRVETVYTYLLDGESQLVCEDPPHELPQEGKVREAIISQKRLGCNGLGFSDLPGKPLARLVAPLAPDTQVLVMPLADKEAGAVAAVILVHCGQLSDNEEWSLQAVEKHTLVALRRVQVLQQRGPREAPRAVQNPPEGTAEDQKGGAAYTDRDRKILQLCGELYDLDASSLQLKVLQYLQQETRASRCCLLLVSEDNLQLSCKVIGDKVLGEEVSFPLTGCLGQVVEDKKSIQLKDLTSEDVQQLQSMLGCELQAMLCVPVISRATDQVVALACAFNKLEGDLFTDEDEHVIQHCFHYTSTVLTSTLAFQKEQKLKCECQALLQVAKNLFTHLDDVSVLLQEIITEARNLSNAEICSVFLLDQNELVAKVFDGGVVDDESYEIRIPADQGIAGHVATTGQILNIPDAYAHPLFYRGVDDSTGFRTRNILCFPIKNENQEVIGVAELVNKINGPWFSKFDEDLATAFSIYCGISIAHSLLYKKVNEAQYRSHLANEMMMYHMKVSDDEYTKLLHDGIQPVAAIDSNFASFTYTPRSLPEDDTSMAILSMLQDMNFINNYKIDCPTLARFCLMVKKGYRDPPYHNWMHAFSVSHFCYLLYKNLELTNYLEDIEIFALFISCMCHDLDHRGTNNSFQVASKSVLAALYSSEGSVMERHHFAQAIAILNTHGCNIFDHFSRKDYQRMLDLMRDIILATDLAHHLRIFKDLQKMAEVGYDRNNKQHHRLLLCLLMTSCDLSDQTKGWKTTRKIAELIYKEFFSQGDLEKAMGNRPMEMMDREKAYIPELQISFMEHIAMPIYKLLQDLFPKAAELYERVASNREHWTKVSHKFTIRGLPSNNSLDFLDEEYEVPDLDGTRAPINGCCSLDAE
UniProt O76083: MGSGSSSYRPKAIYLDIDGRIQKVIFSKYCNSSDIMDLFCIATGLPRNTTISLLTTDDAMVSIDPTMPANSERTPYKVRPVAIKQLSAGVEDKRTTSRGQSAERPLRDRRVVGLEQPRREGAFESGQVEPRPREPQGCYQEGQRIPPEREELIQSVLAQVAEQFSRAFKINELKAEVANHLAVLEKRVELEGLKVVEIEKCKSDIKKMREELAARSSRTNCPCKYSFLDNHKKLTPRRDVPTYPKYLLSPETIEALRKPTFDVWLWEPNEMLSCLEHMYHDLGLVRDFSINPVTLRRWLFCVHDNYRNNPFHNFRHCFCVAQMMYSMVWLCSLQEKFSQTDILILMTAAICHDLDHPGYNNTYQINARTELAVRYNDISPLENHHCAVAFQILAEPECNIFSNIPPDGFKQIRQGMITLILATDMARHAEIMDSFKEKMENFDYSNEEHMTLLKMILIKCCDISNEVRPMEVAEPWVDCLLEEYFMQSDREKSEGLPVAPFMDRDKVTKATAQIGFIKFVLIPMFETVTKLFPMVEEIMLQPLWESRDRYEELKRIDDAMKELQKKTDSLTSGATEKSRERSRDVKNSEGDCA
UniProt Q9NP56: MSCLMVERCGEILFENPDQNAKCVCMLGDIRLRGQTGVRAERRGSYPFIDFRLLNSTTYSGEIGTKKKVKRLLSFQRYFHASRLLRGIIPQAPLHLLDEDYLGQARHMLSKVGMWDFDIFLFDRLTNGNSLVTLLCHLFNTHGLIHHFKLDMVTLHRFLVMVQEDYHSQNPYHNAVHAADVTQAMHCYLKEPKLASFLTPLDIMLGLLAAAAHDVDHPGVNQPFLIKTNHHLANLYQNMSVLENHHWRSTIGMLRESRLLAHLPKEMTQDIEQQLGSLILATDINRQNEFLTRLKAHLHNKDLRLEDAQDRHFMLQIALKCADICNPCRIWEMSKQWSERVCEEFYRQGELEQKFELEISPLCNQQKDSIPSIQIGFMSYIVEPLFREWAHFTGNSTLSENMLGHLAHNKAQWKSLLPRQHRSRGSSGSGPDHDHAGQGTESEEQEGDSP
UniProt Q9Y233: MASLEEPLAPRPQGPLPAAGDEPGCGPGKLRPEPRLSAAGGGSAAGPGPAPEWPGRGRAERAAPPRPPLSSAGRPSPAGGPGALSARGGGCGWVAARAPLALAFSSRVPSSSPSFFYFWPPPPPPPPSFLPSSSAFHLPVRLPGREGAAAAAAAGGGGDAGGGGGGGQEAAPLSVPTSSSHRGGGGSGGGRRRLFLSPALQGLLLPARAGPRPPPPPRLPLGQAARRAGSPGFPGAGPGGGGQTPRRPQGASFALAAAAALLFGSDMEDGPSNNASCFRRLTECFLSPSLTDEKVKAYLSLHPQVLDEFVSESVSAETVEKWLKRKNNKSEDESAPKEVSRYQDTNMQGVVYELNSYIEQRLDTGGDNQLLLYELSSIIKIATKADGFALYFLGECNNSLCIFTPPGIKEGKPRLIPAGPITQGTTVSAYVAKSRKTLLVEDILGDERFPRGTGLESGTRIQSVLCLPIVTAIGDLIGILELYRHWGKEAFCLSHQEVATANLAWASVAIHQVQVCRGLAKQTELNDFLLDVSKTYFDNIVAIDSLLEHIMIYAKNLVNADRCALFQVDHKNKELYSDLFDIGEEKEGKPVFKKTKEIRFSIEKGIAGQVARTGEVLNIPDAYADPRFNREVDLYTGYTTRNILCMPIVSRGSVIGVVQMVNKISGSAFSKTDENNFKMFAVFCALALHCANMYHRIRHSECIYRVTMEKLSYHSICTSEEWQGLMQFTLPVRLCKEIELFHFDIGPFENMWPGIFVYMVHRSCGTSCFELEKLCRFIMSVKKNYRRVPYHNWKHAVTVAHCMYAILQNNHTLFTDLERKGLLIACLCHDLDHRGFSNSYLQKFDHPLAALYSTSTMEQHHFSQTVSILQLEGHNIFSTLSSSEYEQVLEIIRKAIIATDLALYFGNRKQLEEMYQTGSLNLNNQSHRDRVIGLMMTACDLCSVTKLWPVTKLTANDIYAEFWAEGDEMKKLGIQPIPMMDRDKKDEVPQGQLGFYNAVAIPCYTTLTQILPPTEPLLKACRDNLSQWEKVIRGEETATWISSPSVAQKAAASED
UniProt Q13370: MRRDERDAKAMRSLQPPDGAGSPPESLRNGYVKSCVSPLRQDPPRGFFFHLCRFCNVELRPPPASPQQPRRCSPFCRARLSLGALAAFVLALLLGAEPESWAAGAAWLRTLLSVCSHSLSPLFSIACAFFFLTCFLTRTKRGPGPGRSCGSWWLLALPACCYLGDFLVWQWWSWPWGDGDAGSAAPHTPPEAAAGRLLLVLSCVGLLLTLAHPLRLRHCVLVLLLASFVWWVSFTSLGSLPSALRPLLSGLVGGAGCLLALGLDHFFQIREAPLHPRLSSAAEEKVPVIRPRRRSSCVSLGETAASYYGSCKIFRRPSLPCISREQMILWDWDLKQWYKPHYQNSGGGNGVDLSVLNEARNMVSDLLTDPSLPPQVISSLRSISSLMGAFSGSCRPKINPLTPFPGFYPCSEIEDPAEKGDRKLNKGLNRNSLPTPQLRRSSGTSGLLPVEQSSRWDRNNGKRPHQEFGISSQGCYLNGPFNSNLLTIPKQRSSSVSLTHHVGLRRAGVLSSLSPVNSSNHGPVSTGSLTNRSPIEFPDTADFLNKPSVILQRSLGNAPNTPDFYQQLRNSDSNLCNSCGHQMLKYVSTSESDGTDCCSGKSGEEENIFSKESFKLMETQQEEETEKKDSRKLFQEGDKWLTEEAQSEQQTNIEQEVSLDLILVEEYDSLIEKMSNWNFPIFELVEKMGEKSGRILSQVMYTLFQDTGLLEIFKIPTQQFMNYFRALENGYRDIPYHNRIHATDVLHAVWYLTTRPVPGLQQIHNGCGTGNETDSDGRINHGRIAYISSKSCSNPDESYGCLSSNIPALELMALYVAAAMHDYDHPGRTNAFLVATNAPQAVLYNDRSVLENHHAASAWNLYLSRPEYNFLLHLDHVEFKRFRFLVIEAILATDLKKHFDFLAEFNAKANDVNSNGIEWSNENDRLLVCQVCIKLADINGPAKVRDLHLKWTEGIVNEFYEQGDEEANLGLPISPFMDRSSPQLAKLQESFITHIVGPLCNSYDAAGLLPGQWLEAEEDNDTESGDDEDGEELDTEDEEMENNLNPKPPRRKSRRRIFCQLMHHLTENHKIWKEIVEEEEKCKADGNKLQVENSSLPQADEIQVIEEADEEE

Columns and labels:
Experiment in all cases: biochemical
[1] = molecular target: hPDE2A (Homo sapiens, UniProt O00408)
Experimental: (§1) The PDE1 enzyme is reconstituted with 50% glycerol to 2.5 U/ml. […] The compounds are mixed and pre-incubated with the enzyme for 10 min at room temperature.
(§2) The reaction is incubated in dark at room temperature for 15 min.

[2] = molecular target: hPDE9A (Homo sapiens, UniProt O76083)
Experimental: as §1, §2

[3] = molecular target: hPDE7B (Homo sapiens, UniProt Q9NP56)
Experimental: as §1, §2

[4] = molecular target: hPDE10A (Homo sapiens, UniProt Q9Y233)
Experimental: as §1, §2

[5] = molecular target: hPDE3B (Homo sapiens, UniProt Q13370)
Experimental: as §1, §2

[6] = molecular target: r-bovine PDE5A (Bos taurus, UniProt Q28156)
Experimental: as §1, §2

Compound: CN1C(=O)c2c(nn(Cc3ccc(-c4cccc(F)n4)cc3)c2Nc2ccccc2)N2C1=N[C@@H]1CCC[C@@H]12 [Compound 214]
- IC50 [1]: 3660 nM
- IC50 [2]: 16600 nM
- IC50 [3]: 355 nM
- IC50 [4]: 1820 nM
- IC50 [5]: 3120 nM
- IC50 [6]: 632 nM
